# Measurements taken from publication PMC10295546, “Synthesis, Cytotoxicity and Molecular Docking of New Hybrid Compounds by Combination of Curcumin with Oleanolic Acid” (Biomedicines, 2023).
# Tested on: MCF7, HeLaWT and HT-29 cancer cells
# Assay: MTT cell viability assay, range over the three cancer cell lines
# Settings: Homo sapiens, 24 h, read-out: IC50 value (24 h), range over cell lines
row,Structure (SMILES),IC50 [µM]
1,"COc1cc(/C=C/c2cc(/C=C/c3ccc(OC(=O)CCC(=O)OC4CCC5(C)C(CCC6(C)C5CC=C5C7CC(C)(C)CCC7(C(=O)O)CCC56C)C4(C)C)c(OC)c3)on2)ccc1O (stereo not drawn) [KS5, Curcumin isoxazole mono-oleanoyl hydrogen succinate]",20.6 to 94.4
2,"COC(=O)C12CCC(C)(C)CC1C1=CCC3C4(C)CCC(OC(=O)CCC(=O)Oc5ccc(/C=C/c6cc(/C=C/c7ccc(O)c(OC)c7)n[nH]6)cc5OC)C(C)(C)C4CCC3(C)C1(C)CC2 (stereo not drawn) [KS8, Curcumin pyrazole mono-oleanoyl hydrogen succinate methyl ester]",20.6 to 94.4
3,"COc1cc(/C=C/c2cc(/C=C/c3ccc(OC(=O)CCC(=O)OC4CCC5(C)C(CCC6(C)C5CC=C5C7CC(C)(C)CCC7(C(=O)O)CCC56C)C4(C)C)c(OC)c3)[nH]n2)ccc1O (stereo not drawn) [KS6, Curcumin pyrazole mono-oleanoyl hydrogen succinate]",20.6 to 94.4
